The values that follow come from patent US20250206790A1.

Experiment [1] concerns the target T1, His-CTDSP1 (C-terminal domain small phosphatase 1 with C-terminal linker and His tag) (Homo sapiens (Human)), Q9GZU7.
T1 chain: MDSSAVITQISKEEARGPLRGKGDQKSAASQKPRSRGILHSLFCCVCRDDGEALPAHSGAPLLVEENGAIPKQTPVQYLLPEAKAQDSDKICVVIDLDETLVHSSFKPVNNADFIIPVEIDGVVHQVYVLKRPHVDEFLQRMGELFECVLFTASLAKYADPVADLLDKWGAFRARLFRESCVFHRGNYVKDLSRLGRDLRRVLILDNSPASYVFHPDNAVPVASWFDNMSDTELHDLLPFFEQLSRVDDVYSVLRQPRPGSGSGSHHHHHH
As to the kind of experiment: Monolith (NanoTemper); His tag of CTDSP1 (40 nM) labelled with RED-tris NTA dye, GST-RPP titrated from low pM up to 0.5 µM.

For experiment [2], the target named is T1, His-CTDSP1 (C-terminal domain small …). As to the kind of experiment: cell-based or functional assay.

B1: GST-RPP (REST phosphomimetic peptide fused to GST) (peptide)
chain: MCTEDLEPPEPPLPKENCGSGSGSGSSPILGYWKIKGLVQPTRLLLEYLEEKYEEHLYERDEGDKWRNKKFELGLEFPNLPYYIDGDVKLTQSMAIIRYIADKHNMLGGCPKERAEISMLEGAVLDIRYGVSRIAYSKDFETLKVDFLSKLPEMLKMFEDRLCHKTYLNGDHVTHPDFMLYDALDVVLYMDPMCLDAFPKLVCFKKRIEAIPQIDKYLKSSKYIAWPLQGWQATFGGGDHPPK
modifications: not checked
Regarding B1, the Kd (as a rule, the constant that tells how readily two partners part at equilibrium) in experiment [1] was determined as 0.13 nM. The Relative Phosphatase activity of CTDSP1 on REST peptide TEDpSPPp[..] at 1 µM peptide-GST fusion (relative to GST control) in experiment [2] worked out at 0.42.
